Assay: Phase 1 MAD study of ALT-801: adverse events (TEAEs), safety overview

## CC[C@H](C)[C@H](NC(=O)[C@H](Cc1ccccc1)NC(=O)[C@H](CCC(=O)O)NC(=O)[C@@H]1CCCCNC(=O)CC[C@H](NC(=O)[C@H](CC(=O)O)NC(=O)[C@H](CC(C)C)NC(=O)[C@H](Cc2ccc(O)cc2)NC(=O)[C@H](CCCCN)NC(=O)[C@H](CO)NC(=O)[C@H](Cc2ccc(O)cc2)NC(=O)[C@H](CC(=O)O)NC(=O)[C@H](CO)NC(=O)[C@@H](NC(=O)[C@H](Cc2ccccc2)NC(=O)[C@@H](NC(=O)CNC(=O)[C@H](CCC(N)=O)NC(=O)C(C)(C)NC(=O)[C@@H](N)Cc2c[nH]cn2)[C@@H](C)O)[C@@H](C)O)C(=O)N[C@@H](CCCCNC(=O)[C@H]2O[C@@H](OCCCCCCCCCCCCCCCCCC(=O)O)[C@H](O)[C@@H](O)[C@@H]2O)C(=O)N[C@@H](C)C(=O)N[C@@H](C)C(=O)N1)C(=O)N[C@@H](CCC(N)=O)C(=O)N[C@@H](Cc1c[nH]c2ccccc12)C(=O)N[C@@H](CC(C)C)C(=O)N[C@@H](CC(C)C)C(=O)N[C@@H](CCC(N)=O)C(=O)N[C@H](C(N)=O)[C@@H](C)O [ALT-801, pemvidutide]
M2 1.8 mg (N = 9)
  TEAE Injection site bruising; Moderate; %: (0.0%)
  TEAE Injection site bruising; Moderate; n: 0
  TEAE Injection site bruising; PLT; %: (0.0%)
  TEAE Injection site bruising; PLT; n: 0
  TEAE Injection site bruising; Severe; %: (0.0%)
  TEAE Injection site bruising; Severe; n: 0
  TEAE Injection site dermatitis; Mild; %: (11.1%)
  TEAE Injection site dermatitis; Mild; n: 1
  TEAE Injection site dermatitis; Moderate; %: (0.0%)
  TEAE Injection site dermatitis; Moderate; n: 0
  TEAE Injection site dermatitis; PLT; %: (0.0%)
  TEAE Injection site dermatitis; PLT; n: 0
  TEAE Injection site dermatitis; Severe; %: (0.0%)
  TEAE Injection site dermatitis; Severe; n: 0
  TEAE Nausea; Mild; %: (55.6%)
  TEAE Nausea; Mild; n: 5
  TEAE Nausea; Moderate; %: (11.1%)
  TEAE Nausea; Moderate; n: 1
  TEAE Nausea; PLT; %: (0.0%)
  TEAE Nausea; PLT; n: 0
  TEAE Nausea; Severe; %: (0.0%)
  TEAE Nausea; Severe; n: 0
  TEAE Palpitation; Mild; %: (0.0%)
  TEAE Palpitation; Mild; n: 0
  TEAE Palpitation; Moderate; %: (0.0%)
  TEAE Palpitation; Moderate; n: 0
  TEAE Palpitation; PLT; %: (0.0%)
  TEAE Palpitation; PLT; n: 0
  TEAE Palpitation; Severe; %: (0.0%)
  TEAE Palpitation; Severe; n: 0
  TEAE Peripheral swelling; Mild; %: (0.0%)
  TEAE Peripheral swelling; Mild; n: 0
  TEAE Peripheral swelling; Moderate; %: (0.0%)
  TEAE Peripheral swelling; Moderate; n: 0
  TEAE Peripheral swelling; PLT; %: (0.0%)
  TEAE Peripheral swelling; PLT; n: 0
  TEAE Peripheral swelling; Severe; %: (0.0%)
  TEAE Peripheral swelling; Severe; n: 0
  TEAE Rectal haemorrhage; Mild; %: (11.1%)
  TEAE Rectal haemorrhage; Mild; n: 1
  TEAE Rectal haemorrhage; Moderate; %: (0.0%)
  TEAE Rectal haemorrhage; Moderate; n: 0
  TEAE Rectal haemorrhage; PLT; %: (0.0%)
  TEAE Rectal haemorrhage; PLT; n: 0
  TEAE Rectal haemorrhage; Severe; %: (0.0%)
  TEAE Rectal haemorrhage; Severe; n: 0
  TEAE Tachycardia; Mild; %: (0.0%)
  TEAE Tachycardia; Mild; n: 0
  TEAE Tachycardia; Moderate; %: (0.0%)
  TEAE Tachycardia; Moderate; n: 0
  TEAE Tachycardia; PLT; %: (0.0%)
  TEAE Tachycardia; PLT; n: 0
  TEAE Tachycardia; Severe; %: (0.0%)
  TEAE Tachycardia; Severe; n: 0
  TEAE Tooth impacted; Mild; %: (0.0%)
  TEAE Tooth impacted; Mild; n: 0
  TEAE Tooth impacted; Moderate; %: (0.0%)
  TEAE Tooth impacted; Moderate; n: 0
  TEAE Tooth impacted; PLT; %: (0.0%)
  TEAE Tooth impacted; PLT; n: 0
  TEAE Tooth impacted; Severe; %: (0.0%)
  TEAE Tooth impacted; Severe; n: 0
  TEAE Toothache; Mild; %: (11.1%)
  TEAE Toothache; Mild; n: 1
  TEAE Toothache; Moderate; %: (0.0%)
  TEAE Toothache; Moderate; n: 0
  TEAE Toothache; PLT; %: (0.0%)
  TEAE Toothache; PLT; n: 0
  TEAE Toothache; Severe; %: (0.0%)
  TEAE Toothache; Severe; n: 0
  TEAE Vessel puncture site pain; Mild; %: (11.1%)
  TEAE Vessel puncture site pain; Mild; n: 1
  TEAE Vessel puncture site pain; Moderate; %: (0.0%)
  TEAE Vessel puncture site pain; Moderate; n: 0
  TEAE Vessel puncture site pain; PLT; %: (0.0%)
  TEAE Vessel puncture site pain; PLT; n: 0
  TEAE Vessel puncture site pain; Severe; %: (0.0%)
  TEAE Vessel puncture site pain; Severe; n: 0
  TEAE Vomiting; Mild; %: (11.1%)
  TEAE Vomiting; Mild; n: 1
  TEAE Vomiting; Moderate; %: (11.1%)
  TEAE Vomiting; Moderate; n: 1
  TEAE Vomiting; PLT; %: (0.0%)
  TEAE Vomiting; PLT; n: 0
  TEAE Vomiting; Severe; %: (0.0%)
  TEAE Vomiting; Severe; n: 0
M2 1.8 mg ALT-801 (N = 9)
  TEAE Cough, maximum severity Mild, subjects %: (0.0%)
  TEAE Cough, maximum severity Mild, subjects n: 0
  TEAE Cough, maximum severity Moderate, subjects %: (0.0%)
  TEAE Cough, maximum severity Moderate, subjects n: 0
  TEAE Cough, maximum severity PLT, subjects %: (0.0%)
  TEAE Cough, maximum severity PLT, subjects n: 0
  TEAE Cough, maximum severity Severe, subjects %: (0.0%)
  TEAE Cough, maximum severity Severe, subjects n: 0
  TEAE Dermatitis contact, maximum severity Mild, subjects %: (0.0%)
  TEAE Dermatitis contact, maximum severity Mild, subjects n: 0
  TEAE Dermatitis contact, maximum severity Moderate, subjects %: (0.0%)
  TEAE Dermatitis contact, maximum severity Moderate, subjects n: 0
  TEAE Dermatitis contact, maximum severity PLT, subjects %: (0.0%)
  TEAE Dermatitis contact, maximum severity PLT, subjects n: 0
  TEAE Dermatitis contact, maximum severity Severe, subjects %: (0.0%)
  TEAE Dermatitis contact, maximum severity Severe, subjects n: 0
  TEAE Eczema, maximum severity Mild, subjects %: (33.3%)
  TEAE Eczema, maximum severity Mild, subjects n: 3
  TEAE Eczema, maximum severity Moderate, subjects %: (0.0%)
  TEAE Eczema, maximum severity Moderate, subjects n: 0
  TEAE Eczema, maximum severity PLT, subjects %: (0.0%)
  TEAE Eczema, maximum severity PLT, subjects n: 0
  TEAE Eczema, maximum severity Severe, subjects %: (0.0%)
  TEAE Eczema, maximum severity Severe, subjects n: 0
  TEAE Hot flush, maximum severity Mild, subjects %: (0.0%)
  TEAE Hot flush, maximum severity Mild, subjects n: 0
  TEAE Hot flush, maximum severity Moderate, subjects %: (0.0%)
  TEAE Hot flush, maximum severity Moderate, subjects n: 0
  TEAE Hot flush, maximum severity PLT, subjects %: (0.0%)
  TEAE Hot flush, maximum severity PLT, subjects n: 0
  TEAE Hot flush, maximum severity Severe, subjects %: (0.0%)
  TEAE Hot flush, maximum severity Severe, subjects n: 0
  TEAE Menorrhagia, maximum severity PLT, subjects %: (0.0%)
  TEAE Menorrhagia, maximum severity PLT, subjects n: 0
  TEAE Oropharyngeal pain, maximum severity Mild, subjects %: (0.0%)
  TEAE Oropharyngeal pain, maximum severity Mild, subjects n: 0
  TEAE Oropharyngeal pain, maximum severity Moderate, subjects %: (0.0%)
  TEAE Oropharyngeal pain, maximum severity Moderate, subjects n: 0
  TEAE Oropharyngeal pain, maximum severity PLT, subjects %: (0.0%)
  TEAE Oropharyngeal pain, maximum severity PLT, subjects n: 0
  TEAE Oropharyngeal pain, maximum severity Severe, subjects %: (0.0%)
  TEAE Oropharyngeal pain, maximum severity Severe, subjects n: 0
  TEAE Papule, maximum severity Mild, subjects %: (0.0%)
  TEAE Papule, maximum severity Mild, subjects n: 0
  TEAE Papule, maximum severity Moderate, subjects %: (0.0%)
  TEAE Papule, maximum severity Moderate, subjects n: 0
  TEAE Papule, maximum severity PLT, subjects %: (0.0%)
  TEAE Papule, maximum severity PLT, subjects n: 0
  TEAE Papule, maximum severity Severe, subjects %: (0.0%)
  TEAE Papule, maximum severity Severe, subjects n: 0
  TEAE Pruritus, maximum severity Mild, subjects %: (11.1%)
  TEAE Pruritus, maximum severity Mild, subjects n: 1
  TEAE Pruritus, maximum severity Moderate, subjects %: (0.0%)
  TEAE Pruritus, maximum severity Moderate, subjects n: 0
  TEAE Pruritus, maximum severity PLT, subjects %: (0.0%)
  TEAE Pruritus, maximum severity PLT, subjects n: 0
  TEAE Pruritus, maximum severity Severe, subjects %: (0.0%)
  TEAE Pruritus, maximum severity Severe, subjects n: 0
  TEAE Rash, maximum severity Mild, subjects %: (22.2%)
  TEAE Rash, maximum severity Mild, subjects n: 2
  TEAE Rash, maximum severity Moderate, subjects %: (0.0%)
  TEAE Rash, maximum severity Moderate, subjects n: 0
  TEAE Rash, maximum severity PLT, subjects %: (0.0%)
  TEAE Rash, maximum severity PLT, subjects n: 0
  TEAE Rash, maximum severity Severe, subjects %: (0.0%)
  TEAE Rash, maximum severity Severe, subjects n: 0
  TEAE Respiratory, thoracic and mediastinal disorders, maximum severity Mild, subjects %: (0.0%)
  TEAE Respiratory, thoracic and mediastinal disorders, maximum severity Mild, subjects n: 0
  TEAE Respiratory, thoracic and mediastinal disorders, maximum severity Moderate, subjects %: (0.0%)
  TEAE Respiratory, thoracic and mediastinal disorders, maximum severity Moderate, subjects n: 0
  TEAE Respiratory, thoracic and mediastinal disorders, maximum severity PLT, subjects %: (0.0%)
  TEAE Respiratory, thoracic and mediastinal disorders, maximum severity PLT, subjects n: 0
  TEAE Respiratory, thoracic and mediastinal disorders, maximum severity Severe, subjects %: (0.0%)
  TEAE Respiratory, thoracic and mediastinal disorders, maximum severity Severe, subjects n: 0
  TEAE Skin and subcutaneous tissue disorders, maximum severity Mild, subjects %: (44.4%)
  TEAE Skin and subcutaneous tissue disorders, maximum severity Mild, subjects n: 4
  TEAE Skin and subcutaneous tissue disorders, maximum severity Moderate, subjects %: (0.0%)
  TEAE Skin and subcutaneous tissue disorders, maximum severity Moderate, subjects n: 0
  TEAE Skin and subcutaneous tissue disorders, maximum severity PLT, subjects %: (0.0%)
  TEAE Skin and subcutaneous tissue disorders, maximum severity PLT, subjects n: 0
  TEAE Skin and subcutaneous tissue disorders, maximum severity Severe, subjects %: (0.0%)
  TEAE Skin and subcutaneous tissue disorders, maximum severity Severe, subjects n: 0
  TEAE Skin lesion, maximum severity Mild, subjects %: (11.1%)
  TEAE Skin lesion, maximum severity Mild, subjects n: 1
  TEAE Skin lesion, maximum severity Moderate, subjects %: (0.0%)
  TEAE Skin lesion, maximum severity Moderate, subjects n: 0
  TEAE Skin lesion, maximum severity PLT, subjects %: (0.0%)
  TEAE Skin lesion, maximum severity PLT, subjects n: 0
  TEAE Skin lesion, maximum severity Severe, subjects %: (0.0%)
  TEAE Skin lesion, maximum severity Severe, subjects n: 0
  TEAE Vascular disorders, maximum severity Mild, subjects %: (0.0%)
  TEAE Vascular disorders, maximum severity Mild, subjects n: 0
  TEAE Vascular disorders, maximum severity Moderate, subjects %: (0.0%)
  TEAE Vascular disorders, maximum severity Moderate, subjects n: 0

From patent US12171806B2, “Therapeutic regimens and methods for lowering blood glucose and/or body weight using GLP-1R and GCGR balanced agonists” (priority 2021, dated 2024)
